27 compounds from US6861448B2, “NAD synthetase inhibitors and uses thereof” (priority 1998, dated 2005) can be followed below.

By UniProt entry, the sequences of proteins in these tests, tags left out.
UniProt P08164, whole entry: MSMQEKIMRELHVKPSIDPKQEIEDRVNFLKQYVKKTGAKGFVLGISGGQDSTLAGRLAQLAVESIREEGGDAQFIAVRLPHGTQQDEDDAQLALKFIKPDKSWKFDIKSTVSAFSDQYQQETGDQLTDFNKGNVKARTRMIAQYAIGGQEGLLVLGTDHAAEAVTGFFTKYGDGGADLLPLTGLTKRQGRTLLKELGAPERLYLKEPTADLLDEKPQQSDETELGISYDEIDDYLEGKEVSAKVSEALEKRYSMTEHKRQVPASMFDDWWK

Each structure is given as a SMILES string. A value given as a limit tells only on which side of the number the result lay.

One assay deals with NAD synthetase (Bacillus subtilis, UniProt P08164). Nature of the assay: NAD synthetase coupled enzyme assay. Format: biochemical. The settings on record: read-out: IC50 Mean; NAD synthetase 2.0 μg/mL; 0.1 mM NaAD; 0.2 mM ATP; pH 8.5; tested form: iodide.
The test system of the next assay is B. subtilis. Nature of the assay: MIC test (NCCLS broth dilution), growth inhibition. Format: cell-based. The settings on record: multiple values = two or more tests; tested form: iodide. Background: In broth dilution the organism is exposed to a series of concentrations in liquid medium.

What is called IC50 is the midpoint of a concentration-inhibition curve. Turning to `C[N+](C)(C)c1ccc(CC(=O)NCCCCCCCCOc2ccc(OC(=O)c3ccc(Cl)c(Cl)c3)cc2)cc1`, at NAD synthetase, the IC50 was found to be 19 µM.

On to `C[N+](C)(C)C(Cc1ccccc1)C(=O)NCCCCCCCCOc1ccc(OC(=O)c2c(F)cccc2F)cc1` (stereo not shown), for which the IC50 at NAD synthetase came out at 26.2 µM.

Turning to `C[N+](C)(C)C(Cc1ccccc1)C(=O)OCCCCCCCCOc1ccc(OC(=O)c2ccc(N=[N+]=[N-])cc2)cc1` (stereo not shown), the IC50 at NAD synthetase turned out to be 16.6 µM.

Take `C[n+]1cccc(C(=O)NCCCCCCCCOc2ccc(OC(=O)c3ccccc3Cl)cc2)c1`: the half-inhibitory concentration (IC50) at NAD synthetase was 47.7 µM.

Consider `COC(=O)c1ccc(OCc2ccccc2)cc1OCCCCCCCCOC(=O)Cc1ccc([N+](C)(C)C)cc1`, for which the IC50 on NAD synthetase was found to be 42.1 µM.

As to `C[N+](C)(C)c1ccc(CC(=O)OCCCCCCCCCCOc2ccc(OCc3ccccc3)cc2)cc1`, on NAD synthetase, the IC50 turned out to be 26.5 µM.

For the compound `C[N+](C)(C)C(Cc1ccc(O)cc1)C(=O)OCCCCCCCn1ccc2cc(OCc3ccccc3)ccc21` (stereo not shown), the concentration for half-maximal inhibition (IC50) at NAD synthetase worked out at 20.2 µM.

In the case of `COc1ccc(CC(C(=O)OCCCCCCCn2ccc3cc(OCc4ccccc4)ccc32)[N+](C)(C)C)cc1` (stereo not shown), the concentration for half-maximal inhibition (IC50) on NAD synthetase was 23.9 µM.

For the compound `COc1cccc(COc2ccc(OCCCCCCCCOC(=O)Cc3ccc([N+](C)(C)C)cc3)cc2)c1`, the concentration for half-maximal inhibition (IC50) on NAD synthetase was found to be 22.5 µM.

For the compound `C[n+]1cccc(C(=O)OCCCCCCCCn2ccc3cccc(OCc4ccccc4)c32)c1`, at NAD synthetase, the IC50 came to 36.2 µM.

For `COc1ccc(C(=O)Oc2ccc(OCCCCCCCCOC(=O)C(Cc3ccccc3)[N+](C)(C)C)cc2)cc1` (stereo not shown), at NAD synthetase, the IC50 was 17 µM.

On to `COC(=O)c1cc2cc(OCc3ccccc3)ccc2n1CCCCCCCNC(=O)c1ccc[n+](C)c1`, for which the IC50 on NAD synthetase amounted to 36.2 µM.

For the compound `C[n+]1cccc(C(=O)NCCCCCCCCOc2ccc(OC(=O)c3cc(Cl)cc(Cl)c3)cc2)c1`, the 50% inhibitory concentration (IC50) on NAD synthetase amounted to 27.7 µM.

As for `C[N+](C)(C)c1ccc(CC(=O)OCCCCCCCCOc2ccc3c(c2)C(=O)CC(c2ccccc2)O3)cc1` (stereo not shown), the IC50 at NAD synthetase came out at 29.2 µM.

For the compound `COC(=O)c1cc2cc(OCc3ccccc3)ccc2n1CCCCCCCNC(=O)Cc1ccc([N+](C)(C)C)cc1`, the IC50 on NAD synthetase is 36.2 µM.

Turning to `CSCC(C(=O)OCCCCCCCn1ccc2cc(OCc3ccccc3)ccc21)[N+](C)(C)C` (stereo not shown), the IC50 at NAD synthetase worked out at 34.2 µM.

`C[N+](C)(C)C(Cc1ccccc1)C(=O)OCCCCCCCCOc1ccc(OC(=O)c2ccc([N+](=O)[O-])cc2)cc1` (stereo not shown): the IC50 on NAD synthetase turned out to be 16 µM.

Consider `C[N+](C)(C)C(Cc1ccccc1)C(=O)NCCCCCCCCOc1ccc(OC(=O)c2ccccc2Cl)cc1` (stereo not shown), for which the half-maximal inhibitory concentration (IC50) on NAD synthetase was determined as 18.1 µM.

`COC(=O)c1cc2cc(OCc3ccccc3)ccc2n1CCCCCCCCNC(=O)Cc1ccc([N+](C)(C)C)cc1`: on NAD synthetase, the concentration for half-maximal inhibition (IC50) stood at 36.2 µM.

Take `C[N+](C)(C)c1ccc(CC(=O)OCCCCCCCCCCCCOc2ccc(OCc3ccccc3)cc2)cc1`: on NAD synthetase, the concentration for half-maximal inhibition (IC50) is 50.7 µM.

On to `COC(=O)c1cc2cc(OCc3ccccc3)ccc2n1CCCCCCCOC(=O)c1ccc[n+](C)c1`, for which, at NAD synthetase, the IC50 was 36.2 µM.

On to `C[n+]1cccc(C(=O)OCCCCCCCCOc2cccc(OCc3ccccc3)c2)c1`, for which, at NAD synthetase, the concentration for half-maximal inhibition (IC50) came to 36.2 µM.

Regarding `CC(C)Oc1ccc(C(=O)Oc2ccc(OCCCCCCCCNC(=O)c3ccc[n+](C)c3)cc2)cc1`, the IC50 at NAD synthetase worked out at 16.8 µM.

As to `C[N+](C)(C)[C@@H](Cc1ccccc1)C(=O)NCCCCCCCCOc1ccc(OCc2cccc(Cl)c2)cc1`, in the assay with B. subtilis, the “Minimal Inhibitory Concentration (MIC), B. subtilis” value was below 0.39 µg/mL. Besides, the half-inhibitory concentration (IC50) at NAD synthetase came to 31.3 µM.

`C[n+]1cccc(C(=O)NCCCCCCCCOc2ccc(OC(=O)c3ccc(Cl)cc3Cl)cc2)c1`: the concentration for half-maximal inhibition (IC50) at NAD synthetase was 23.2 µM.

With `C[N+](C)(C)c1ccc(CC(=O)OCCCCCCCCOc2ccc(OCc3ccc(Cl)cc3)cc2)cc1`, the 50% inhibitory concentration (IC50) on NAD synthetase was 16 µM.

With `C[n+]1cccc(C(=O)NCCCCCCCCOc2ccc(OC(=O)c3cccc(Cl)c3)cc2)c1`, the IC50 at NAD synthetase is 17.9 µM.
